Screening results as filed in PubChem.
Mito fusion yeast: inhibitors of mitochondrial division or activators of mitochondrial fusion. S. cerevisiae fusion-defective mutant growth rescue, CellTiterGlo 48 h. Potency, µM (top dose mostly 46.1 µM), for inactives: top-dose growth rescue (activation), hits mostly activators. 0.23% of 320,000 active; note: potency is the fitted concentration of half-maximal effect; % of control where 0% means no effect; nearly all actives have a fitted effect of over 45% in size
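S. cerevisiae fusion-defective temperature-sensitive mutants (e.g. fzo1-1, mgm1-5) grown 48 h at 37C in YPEG (ethanol/glycerol non-fermentable) medium with 23 nl compound per well; growth rescue read as CellTiterGlo luminescence.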
Nrf2 inh: Nrf2 pathway inhibition | A549 ARE-Fluc reporter, luciferase luminescence, 18-24 h | 2.1% of 360,000 active | AID 504444 | Potency, µM (series often up to 46 µM), for the others: top-dose activity change, negative = inhibition, usual class: inhibitors; note: potency is the fitted concentration of half-maximal effect; % is set by controls: 0 for no effect and ±100 for the full control effect; nearly all actives have a fitted effect of over 60% in size
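A549 ARE_Fluc cells, 5000/well, 5% FBS OPTI-MEM; compounds in dose-response, 18-24 h at 37 °C/5% CO2; CellTiter-Fluor viability read (Ex 405/Em 525), then BugLite luciferase luminescence = Nrf2 activity.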
A549 tox: kills or reduces viability of A549 cells in Nrf2 counter-screen; A549 ARE-Fluc cells, CellTiter-Fluor viability, 18-24 h; Potency, µM (series often up to 46 µM), without a hit: top-dose activity change, negative = cytotoxicity, actives largely listed as inhibitors; 0.16% of 390,000 active; AID 504648; note: potency is the fitted concentration of half-maximal effect; % is set by controls: 0 for no effect and ±100 for the full control effect
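A549 ARE-Fluc cells in 5% FBS OPTI-MEM, 5000 cells/well, rested 2 h then exposed to compounds in concentration-response for 18-24 h at 37 °C. Viability by CellTiter-Fluor fluorescence (Ex 405/Em 525) after 30 min; luciferase luminescence (BugLite, 15 min, RT) read afterwards.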
Nrf2 activator: activators of Nrf2 (ARE) signaling | AREc32 ARE-luciferase reporter (MCF7-derived line), luminescence, 24 h | Potency, µM (top dose mostly 46.1 µM), inactives show at the highest dose activation, actives largely listed as activators | 0.31% of 410,000 active | AID 624171; note: potency is the fitted concentration of half-maximal effect; % of control where 0% means no effect; nearly all actives have a fitted effect of over 65% in size
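Cells of the AREc32 ARE-luciferase line are plated in OPTI-MEM containing 5% FBS and left overnight at 37 deg C. Compounds are pinned in, incubation continues 24 hr, and firefly luciferase signal is then measured.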
GRP78 ERSR act: ER stress response induction in glioma. 0.02% of 420,000 active. Potency, µM, inactives show at the top dose activation, most hits filed as activators. U87-MG GRP78 promoter luciferase reporter, 16 h; note: potency is the fitted concentration of half-maximal effect; series mostly up to about 76 µM; % of control where 0% means no effect; nearly all actives have a fitted effect of over 35% in size
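ERSR induction read as luciferase luminescence (Bright-Glo, 10 min at room temperature) in stably transfected human U87-MG glioma cells exposed to compounds for 16 h, using GRP78 as sensor.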
miR-21 reporter: raises the signal of a miR-21 reporter | HeLa miR-21 FLuc reporter, luciferase, 48 h | Potency, µM (doses to about 38.3 µM), without a hit: at the top dose reporter change, positive = more light | 340,000 tested, under 10 active | AID 2288; active = well fitted rising curve with a large enough effect; inconclusive = small, poorly fitted or top-dose-only effect; inactive = no such curve, though single readings can be large or run the other way;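 note: % of control where 0% means no effect; miR-21 action dims this reporter so a rising signal means less miR-21 action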
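Luminescence from a firefly luciferase reporter carrying a miR-21 binding site downstream, stably expressed under a CMV promoter in HeLa cells that make miR-21 endogenously, reports miRNA modulation after 48 h compound exposure up to approximately 40uM final.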
Active calls of the source: *; ? = inconclusive; . = not tested or not shown; [ ] = remark or other dose. This is a sample that favours compounds with a hit; in the whole collection about 2.3% have one here. Unless noted, calls come from the whole dose curve; as a rule, active = well fitted curve in the direction sought with a large enough effect; inconclusive = small, poorly fitted or top-dose-only effect, or another doubt; inactive = no such curve, though single readings can be large; an effect the other way counts as inactive or inconclusive.

# | SMILES | Mito fusion yeast | Nrf2 inh | A549 tox
1 | Cc1cc(C)c(NS(=O)(=O)c2ccc3c(c2)CC(C)N3C(=O)C2CCC2)c(C)c1 (configuration not stated) | . | 20.6µM* | -4.7%
2 | COc1ccccc1CNS(=O)(=O)c1ccc2c(c1)CC(C)N2C(=O)C1CCC1 (configuration not stated) | 6.6% | 18.4µM* | -14.2%
3 | CC1Cc2cc(S(=O)(=O)CCC(=O)Nc3ccc(OC(F)(F)F)cc3)ccc2N1C(=O)C1CC1 (configuration not stated) | . | 23.1µM* | 1.3%
4 | CCCN(c1ccccc1CC)S(=O)(=O)c1ccc2c(c1)CC(C)N2C(=O)C1CC1 (configuration not stated) | . | 20.6µM* | -5.6%
5 | COc1ccccc1CNS(=O)(=O)c1ccc2c(c1)CC(C)N2C(=O)C1CC1 (configuration not stated) | ? | 16.0% | 0.8%
6 | NS(=O)(=O)c1ccc(CNC(=O)/C=C/c2ccc(S(=O)(=O)N3CCOCC3)cc2)cc1 | 4.3% | 5.0% | 4.8%
7 | CSc1ccccc1NC(=O)Cn1nc([N+](=O)[O-])cc1C | 9.1% | 4.1% | 4.9%
8 | CCc1ccc(C(=O)c2cn(Cc3ccc(F)cc3)c3cc(OC)c(OC)cc3c2=O)cc1 | . | -7.3% | 20.6µM*
9 | CCc1ccc(C(=O)c2cn(CC(=O)Nc3ccc(F)c(F)c3)c3cc(OC)c(OC)cc3c2=O)cc1 | . | ? | -16.7%
10 | CCN1CCN(Cc2ccc(NC(=O)c3ccc(C)c(NC(=O)c4cncc(-c5cccs5)c4)c3)cc2C(F)(F)F)CC1 | . | 8.2µM* | ?
11 | CCN1CCN(Cc2ccc(NC(=O)c3ccc(C)c(NC(=O)c4nccn4C)c3)cc2C(F)(F)F)CC1 | -3.8% | -7.9% | 3.6%
12 | CC1(C)CC(=O)N(Cc2ccccc2)C(=O)C1 | ? | 24.0% | 3.7%

# | Nrf2 activator | GRP78 ERSR act | miR-21 reporter
1 | -0.1% | -2.8% | 21.3%
2 | 2.8% | -4.4% | 16.0%
3 | -1.1% | -4.1% | 19.7%
4 | 5.1% | . | ?
5 | 4.2% | 5.4% | 13.1%
6 | 0.1% | 8.9% | -1.3%
7 | 0.8%[9.22 µM] | -2.2% | 3.6%
8 | -2.6% | -5.1% | 25.3%
9 | -0.6% | -1.6% | ?
10 | -2.8% | -10.2% | .
11 | -0.3% | -7.2% | 0.8%
12 | -0.3% | -1.7% | -1.0%

Next structures:
# | SMILES | Mito fusion yeast | Nrf2 inh | A549 tox
13 | O=C(c1ccccc1)N1CCN2C(=O)c3ccccc3C12c1ccc(Cl)cc1 (configuration not stated) | 19.0% | 13µM* | -4.7%
14 | O=C(c1ccc(F)cc1)N1CCN2C(=O)c3ccccc3C12c1ccc(Cl)cc1 (configuration not stated) | 2.7% | -8.8% | 2.8%
15 | COc1ccc(N2CCN(C(c3nnnn3C3CCCC3)C(C)C)CC2)cc1 (configuration not stated) | 12.6µM* | -11.1% | 1.4%
16 | CCCc1nnc(NC(=O)CCS(=O)(=O)Cc2ccccc2)s1 | -3.1% | 11.0% | 0.3%
17 | O=C(Nc1ccc(O)cc1)c1cc2ccccc2c(=O)s1 | -0.7% | 14.1% | -7.3%
18 | O=C(Nc1ccccc1)c1cc2ccccc2c(=O)s1 | 17.6% | -7.8% | -5.4%
19 | CSc1nsc(SC)c1NC(=O)Nc1ccccn1 | -0.5% | . | -13.3%
20 | COC(c1ccccc1)c1nnc(CCC(=O)NCCc2ccc(Cl)cc2)o1 (configuration not stated) | 3.1% | 2.5% | -3.5%
21 | Cc1ccc(Cn2c(NCCc3ccccc3)nc3c2c(=O)n(C)c(=O)n3C)cc1 | 4.7% | 14.6µM* | -4.8%
22 | Cn1c(=O)c2c(nc(N/N=C/c3ccc(OC(=O)c4ccco4)cc3)n2Cc2ccccc2)n(C)c1=O | ? | 16.4µM* | -19.7%
23 | Cn1c(=O)c2c(nc(NCc3ccco3)n2CCc2ccccc2)n(C)c1=O | 1.4% | 20.6µM* | -15.3%
24 | Cn1c(=O)c2c(nc(CN3CCCCC3)n2Cc2c(F)cccc2Cl)n(C)c1=O | -6.9% | 7.7% | 2.9%

# | Nrf2 activator | GRP78 ERSR act | miR-21 reporter
13 | 0.3% | 0.4% | -3.7%
14 | 0.5% | 0.2% | -14.8%
15 | -0.1% | 3.0% | -5.3%
16 | 8.3% | -3.1% | -0.4%
17 | 6.6% | -0.8% | -29.9%
18 | 10µM* | 5.1% | -0.6%
19 | 10µM* | -2.5% | -16.1%
20 | -1.1% | -0.8% | 0.5%
21 | -0.5% | -0.1% | -7.0%
22 | 3.6% | -2.1% | 0.5%
23 | 8.0% | -0.2% | 14.4%
24 | -0.9% | -2.6% | 1.0%

An excerpt of these results, with values under each structure.
Results follow in this order: Mito fusion yeast, Nrf2 inh, A549 tox, Nrf2 activator, GRP78 ERSR act, miR-21 reporter
(13) O=C(c1ccccc1)N1CCN2C(=O)c3ccccc3C12c1ccc(Cl)cc1 (configuration not stated)
  19.0%, 13µM*, -4.7%, 0.3%, 0.4%, -3.7%
(14) O=C(c1ccc(F)cc1)N1CCN2C(=O)c3ccccc3C12c1ccc(Cl)cc1 (configuration not stated)
  2.7%, -8.8%, 2.8%, 0.5%, 0.2%, -14.8%
(15) COc1ccc(N2CCN(C(c3nnnn3C3CCCC3)C(C)C)CC2)cc1 (configuration not stated)
  12.6µM*, -11.1%, 1.4%, -0.1%, 3.0%, -5.3%
(16) CCCc1nnc(NC(=O)CCS(=O)(=O)Cc2ccccc2)s1
  -3.1%, 11.0%, 0.3%, 8.3%, -3.1%, -0.4%

The list continues.
# | SMILES | Mito fusion yeast | Nrf2 inh | A549 tox
25 | COCCNc1nc2c(c(=O)n(C)c(=O)n2C)n1Cc1c(F)cccc1Cl | . | 18.4µM* | -7.1%
26 | COCCCNc1nc2c(c(=O)n(C)c(=O)n2C)n1Cc1ccccc1 | . | ? | 7.7%
27 | CCNc1nc2c(c(=O)n(C)c(=O)n2C)n1Cc1ccc(Cl)cc1 | -2.4% | 9.2µM* | -5.3%
28 | CCC(C)Nc1nc2c(c(=O)n(C)c(=O)n2C)n1Cc1ccc(Cl)cc1 (configuration not stated) | ? | ? | ?
29 | CCCNc1nc2c(c(=O)n(C)c(=O)n2C)n1Cc1ccc(F)cc1 | 1.9% | 14.6µM* | -15.6%
30 | O=C(CN1C(=O)/C(=C/c2cccc(Cl)c2)SC1=S)NC1C=CS(=O)(=O)C1 (configuration not stated) | -3.1% | 10.6% | 1.1%
31 | O=C(CN1C(=O)S/C(=C\c2cccc(Cl)c2)C1=O)NC1C=CS(=O)(=O)C1 (configuration not stated) | -2.1% | 0.5% | 1.1%
32 | Cc1ccc(NC(=O)CSc2nc3c(c(=O)[nH]2)CN(Cc2ccccc2)CC3)cc1Cl | . | -0.8% | -19.4%
33 | CC(=O)c1c(C)[nH]c(C(=O)CSc2nnc(C3CCCCC3)n2N)c1C | -0.6% | 20.6µM* | -9.4%
34 | COc1cc(C(=O)NCc2ccc(C(=O)NCC(OC)OC)cc2)cc(OC)c1OC | -6.7% | -12.6% | 1.2%
35 | CC(c1ccc(Cl)cc1)n1c(-c2ccc3ccccc3n2)n[nH]c1=S (configuration not stated) | -13.7% | 18.4µM* | ?
36 | COc1ccc2c(c1)C1=NN(/C(C)=C/C(C)=O)C(c3cccc(F)c3)C1CC2 (configuration not stated) | 17.8µM* | 27.9% | 14.2%
37 | Cc1cccc(N2CCN(c3ncnc4c3c(-c3ccccc3)cn4-c3ccccc3)CC2C)c1 (configuration not stated) | . | . | 4.5%
38 | COc1ccc(C(=O)C[n+]2cccc3cccc(O)c32)cc1 | . | . | .
39 | C[C@@H](NC(=O)c1coc(=O)c(Br)c1)c1ccccc1 | 10.5% | ? | -12.0%

# | Nrf2 activator | GRP78 ERSR act | miR-21 reporter
25 | -1.1% | -2.8% | 5.4%
26 | -0.5% | -5.6% | 5.7%
27 | -0.2% | -3.4% | 19.5%
28 | 3.3% | -4.6% | 18.1%
29 | 0.5% | -2.9% | 14.7%
30 | 14.1µM* | 8.0% | -2.0%
31 | 4.8% | -1.9% | -1.6%
32 | -0.2% | -2.9% | 27.3%
33 | 0.0% | -1.5% | 2.9%
34 | 0.4% | -0.9% | 0.8%
35 | 0.1% | 0.8% | 0.7%
36 | ? | 7.8% | -29.6%
37 | -0.6% | -3.3% | 1.1%
38 | . | -1.5% | .
39 | 11.2µM* | -17.3% | -1.1%
